Measured values reported in patent US20090227518A1, “COMPOSITIONS AND METHODS FOR TREATING ACTIN-MEDIATED MEDICAL CONDITIONS” (The Regents of the University of Colorado, priority 2005, published 2009).

Assays:
G-actin = assay: Pyrenated G-actin polymerization with actin polymerization buffer; format: biochemical; settings: concentrations similar to AAT (0.69, 0.34, 0.17 mg/ml)
Protocol: An actin polymerization buffer was added to pyrenated G-actin (control), and the formation of F-actin was followed over a period of 60 minutes. As shown in FIG. 9A-9C, AAT concentrations of 0.69 mg/ml (FIG. 9A), 0.34 mg/ml (FIG. 9B), and 0.17 mg/ml (FIG. 9C) were used.

islet allograft = assay: Islet allograft transplantation in streptozotocin-induced hyperglycemic mice; format: in vivo
Protocol: 5-6 weeks old C57BL/6 mice were treated intraperitoneally (i.p.) with 225 mg/kg Streptozotocin (STZ) (Sigma). Mice with established hyperglycemia were used at least 5 days after STZ administration. Islets were isolated from DBA/2 mice on day of transplantation, or 24 hours before in vitro assays, by enzymatic digestion of pancreatic tissue. Briefly, mice were anesthetized with i.p. ketamine (50 mg/kg, Vedco Inc.) and xylazine (10 mg/kg, Vedco Inc.) Each pancreas was inflated with 3.5 ml cold collagenase (1 mg/ml, type XI, Sigma), excised and immersed for 40 minutes at 37° C. in water bath. Pancreata were gently vortexed and filtered through 500-micron metal sieve. The pellet was washed twice in cold HBSS containing 0.5% BSA (Sigma) and reconstituted in RPMI-1640 (Cellgro, Mediatech) supplemented with 10% FCS (Cellgro), 50 IU/ml Penicillin (Cellgro) and 50 μg/ml streptomycin (Cellgro). Islets were collected on a 100-micron nylon cell strainer (BD Falcon), released into a petri dish by rinsing with HBSS (Cellgro, Mediatech) and 0.5% BSA (Sigma) and hand picked under a stereomicroscope. […]
Islets isolated from DBA/2 mice (H-2d) were transplanted under the left renal capsule of streptozotocin (STZ-) induced hyperglycemic C57BL/6 mice (H-2b). Blood glucose was measured three times a week. […]

islets = assay: Streptozotocin (STZ) toxicity in vivo; parameters: species or system mice; settings: 48 hours after STZ injection; AAT 2 mg one day before, same day and a day after STZ
Protocol: To test the effect of AAT on islets in vivo, STZ toxicity was evaluated. AAT (2 mg) was administered one day before, on the same day and a day after STZ injection. […] Immune cell content of freshly isolated islets was evaluated by FACS analysis. Islets contain CD45+ cells that are also positive for the monocytic/granulocytic markers GR1 and F4/80.
To assess the possibility that islet protection occurred via inhibition of release of membrane TNFα in vivo, TACE inhibitor, p75 TNFα receptor or AAT were introduced to mice prior to STZ injection.

human albumin: human albumin used as control protein
inhibition of actin polymerization (G-actin): no inhibition
islet allograft outcome (islet allograft; 6 mg i.p. one day before transplantation and every 3 days thereafter): graft rejection comparable to that of untreated recipient mice
cellular infiltration into grafted islets (Hematoxilin and Eosin) (islet allograft; grafts removed on day 7): more massive
insulin-producing cells per islet (islets): 12.8%±2.3
